The compounds below were run against human EP3 receptor (Homo sapiens, UniProt P43115) (assay: Cellular in vitro assay for determining EP3 receptor activity (human EP3 cell line, sulprostone-stimulated calcium luminescence)). Conditions: read-out: EP3 CHO mtCLY ANTAG IC50; CHO cells expressing human EP3 and mitochondrial Clytin; antagonist mode, sulprostone at EC50.
Description: B-1. Cellular In Vitro Assay for Determining EP3 Receptor Activity
The identification of antagonists of the EP3 receptor from humans and rats as well as the quantification of the activity of the compounds of the invention was carried out using recombinant cell lines. These cell lines originally derive from a hamsters ovary epithelial cell (Chinese Hamster Ovary, CHO K1, ATCC: American Type Culture Collection, Manassas, Va. 20108, USA). The test cell lines constitutively express the human or rat EP3 receptors. The naturally Gαi-coupled human and rat EP3 receptors were stably co-transfected with Gα16 into cells that are also stably transfected with a mitochondrial form of the calcium-sensitive photoproteins Clytin (human EP3) or Photina (rat EP3), which, after reconstitution with the cofactor coelenterazine, emit light when there are increases in free calcium concentrations (Nature 1992, 358, 325-327; Gene 1995, 153 (2), 273-274). The resulting EP3 receptor cells react to stimulation of the recombinantly expressed EP3 receptors by the agonist sulprostone with intracellular release of calcium ions, which can be quantified by the resulting photoprotein luminescence. Antagonists inhibit the receptor signaling, leading to reduced calcium release and luminescence. The bioluminescence of the cell lines is detected using a suitable luminometer (Trends Pharmacol. Sci. 1996, 17, 235-237).
Human and Rat EP3 Cell Lines:
On the day before the assay, the cells are plated out in culture medium (OptiMEM, 1% FCS, 2 mM glutamine, 10 mM HEPES, 5 μg/ml coelenterazine) in 384-well microtiter plates and kept in a cell incubator (96% humidity, 5% v/v CO2, 37° C.). On the day of the assay, test compounds in various concentrations are placed for 10 minutes in the wells of the microtiter plate before the agonist sulprostone at EC50 concentration is added. The resulting light signal is measured immediately in a luminometer. All concentrations are measured in quadruples.

Amino acid sequences for entries named in this document (tags omitted).
UniProt P43115, whole entry: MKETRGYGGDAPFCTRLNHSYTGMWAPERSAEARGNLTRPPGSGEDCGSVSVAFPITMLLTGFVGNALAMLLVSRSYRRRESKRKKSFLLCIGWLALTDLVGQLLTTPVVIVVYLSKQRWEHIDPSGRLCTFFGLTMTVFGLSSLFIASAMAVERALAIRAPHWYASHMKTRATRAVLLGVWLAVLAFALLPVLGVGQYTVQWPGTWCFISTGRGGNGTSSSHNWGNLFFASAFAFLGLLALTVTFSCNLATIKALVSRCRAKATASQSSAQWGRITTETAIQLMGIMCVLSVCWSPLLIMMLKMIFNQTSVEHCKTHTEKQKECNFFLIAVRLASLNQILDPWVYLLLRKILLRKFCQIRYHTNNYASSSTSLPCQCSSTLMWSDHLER

IC50 [nM]	Compound
1.02	Cc1ccc(-c2cn3nc(C(=O)NC(c4ccc(F)cc4)C4(O)CC4)c(C(F)(F)F)c3c(=O)[nH]2)cc1F (single isomer, unassigned) [6-150]
3.65	Cc1ccc(-c2cn3nc(C(=O)NCC(O)C(F)F)c(C(F)(F)F)c3c(=O)[nH]2)cc1Cl (single isomer, unassigned) [6-184]
9.3	Cc1cc(-c2cn3nc(C(=O)NC(C)CN4CCOCC4)c(C4CC4)c3c(=O)[nH]2)ccc1Cl (single isomer, unassigned) [6-330]
8.65	O=C(NCC(O)C(F)(F)F)c1nn2cc(-c3ccc(Cl)c(F)c3)[nH]c(=O)c2c1C1CC1 (single isomer, unassigned) [6-90]
5.1	COCC(NC(=O)c1nn2cc(-c3ccc(Cl)c(C)c3)[nH]c(=O)c2c1C(F)(F)F)c1ccccc1 (single isomer, unassigned) [6-208]
4	Cc1ccc(-c2cn3nc(C(=O)NC(c4ccc(F)cc4)C4(O)CC4)c(C(F)(F)F)c3c(=O)[nH]2)cc1Cl (single isomer, unassigned) [6-176]
1.13	COCC(NC(=O)c1nn2cc(-c3ccc(Cl)c(C)c3)[nH]c(=O)c2c1C(F)(F)F)c1ccccc1 (single isomer, unassigned) [6-209]
1.02	Cc1ccc(-c2cn3nc(C(=O)NC(c4ccc(F)cc4)C4(O)CC4)c(C(F)(F)F)c3c(=O)[nH]2)cc1Cl (single isomer, unassigned) [6-174]
12	O=C(NC(CO)C(F)(F)F)c1nn2cc(-c3ccc(Cl)c(F)c3)[nH]c(=O)c2c1C1CC1 (single isomer, unassigned) [6-93]
1.9	O=C(NCC(O)C(F)(F)F)c1nn2cc(-c3ccc(Cl)c(F)c3)[nH]c(=O)c2c1C1CC1 (single isomer, unassigned) [6-89]
2.2	CC(C)(O)C(NC(=O)c1nn2cc(-c3ccc(Cl)c(F)c3)[nH]c(=O)c2c1C1CC1)c1ccc(F)c(F)c1 (single isomer, unassigned) [6-100]
3	Cc1ccc(-c2cn3nc(C(=O)NCC(O)C(F)F)c(C(F)(F)F)c3c(=O)[nH]2)cc1Cl (single isomer, unassigned) [6-183]
0.32	Cc1ccc(-c2cn3nc(C(=O)NC(CO)C4CC4)c(C4CC4)c3c(=O)[nH]2)cc1Cl (single isomer, unassigned) [6-267]
1.9	Cc1ccc(-c2cn3nc(C(=O)NCC(O)C(F)F)c(C4CC4)c3c(=O)[nH]2)cc1C (single isomer, unassigned) [6-430]
9	Cc1ccc(-c2cn3nc(C(=O)NCC(O)C(F)F)c(C(F)(F)F)c3c(=O)[nH]2)cc1Cl (single isomer, unassigned) [6-182]

Continued, compound first:

Compound	IC50 [nM]
Cc1ccc(-c2cn3nc(C(=O)NCCN(C)C4CC4)c(C(F)(F)F)c3c(=O)[nH]2)cc1Cl	4.7
Cc1ccc(-c2cn3nc(C(=O)NC4(C(F)(F)F)COC4)c(C4CC4)c3c(=O)[nH]2)cc1F	1.6
Cc1cc(-c2cn3nc(C(=O)NCC(C)(N)C(F)(F)F)c(C(F)(F)F)c3c(=O)[nH]2)ccc1Cl (single isomer, unassigned)	8.75
Cc1cc(-c2cn3nc(C(=O)N[C@@H](c4ccc(F)cc4)[C@@H](O)C(F)(F)F)c(C(F)(F)F)c3c(=O)[nH]2)ccc1Cl	0.7
Cc1cc(-c2cn3nc(C(=O)NC(c4ccc(F)cc4)C(F)(F)CO)c(C(F)(F)F)c3c(=O)[nH]2)ccc1Cl (stereo not shown)	1.15
COC[C@H](C)NC(=O)c1nn2cc(-c3ccc(C)c(F)c3)[nH]c(=O)c2c1C1CC1	3.45
Cc1ccc(-c2cn3nc(C(=O)N[C@@H](c4ccc(F)cc4)C(C)(C)O)c(C#N)c3c(=O)[nH]2)cc1C	2.7
Cc1ccc(-c2cn3nc(C(=O)N[C@@H](c4ccc(F)cc4)[C@@H](O)C(F)(F)F)c(C(F)(F)F)c3c(=O)[nH]2)cc1Cl	2
CC(C)(O)[C@@H](NC(=O)c1nn2cc(-c3ccc(Cl)c(Cl)c3)[nH]c(=O)c2c1C(F)(F)F)c1ccc(F)cc1	3.55
COC[C@@H](NC(=O)c1nn2cc(-c3ccc(Cl)c(C)c3)[nH]c(=O)c2c1C1CC1)c1ccccc1	0.93
Cc1ccc(-c2cn3nc(C(=O)NC[C@]4(C5CC5)NC(=O)NC4=O)c(C(F)(F)F)c3c(=O)[nH]2)cc1Cl	5.55
Cc1cc(-c2cn3nc(C(=O)N[C@@H](c4ccc(F)cc4)C(F)(F)CO)c(C4CC4)c3c(=O)[nH]2)c(F)cc1Cl	3.1
Cc1cc(-c2cn3nc(C(=O)N[C@@H](C)C(C)(C)C)c(C4CC4)c3c(=O)[nH]2)ccc1Cl	2.3
O=C(N[C@@H](c1ccc(F)cc1)C(F)(F)CO)c1nn2cc(-c3ccc(C(F)(F)F)c(F)c3)[nH]c(=O)c2c1C1CC1	2.55
COC[C@@H](C)NC(=O)c1nn2cc(-c3ccc(Cl)c(C)c3)[nH]c(=O)c2c1C1CC1	3.4
Cc1ccc(-c2cn3nc(C(=O)NC(CO)c4ccc(F)cc4)c(C4CC4)c3c(=O)[nH]2)cc1F (racemic)	0.9
COC[C@@H](C)NC(=O)c1nn2cc(-c3ccc(C)c(Cl)c3)[nH]c(=O)c2c1C1CC1	1.07

Compound	IC50 [nM]
Cc1ccc(-c2cn3nc(C(=O)N[C@@H](C)c4ccc(C(F)(F)F)cc4)cc3c(=O)[nH]2)cc1C	6.9
Cc1ccc(-c2cn3nc(C(=O)N[C@H](CN4CC[C@H](F)C4)c4ccccc4)cc3c(=O)[nH]2)cc1C	2.45
Cc1ccc(-c2cn3nc(C(=O)N[C@H](CN4CC[C@@H](F)C4)c4ccccc4)cc3c(=O)[nH]2)cc1C	4.35
Cc1ccc(-c2cn3nc(C(=O)N[C@@H](c4ccc(F)cc4)C(C)(C)O)c(C4CC4)c3c(=O)[nH]2)cc1Cl	2.25
Cc1cc(-c2cn3nc(C(=O)N[C@H](C)C4CC4)c(C4CC4)c3c(=O)[nH]2)ccc1C(F)(F)F	7.75
Cc1ccc(-c2cn3nc(C(=O)N[C@@H](c4ccc(F)cc4)C(F)(F)CO)c(C4CC4(F)F)c3c(=O)[nH]2)cc1Cl (stereo partly shown)	1.85
Cc1ccc(-c2cn3nc(C(=O)NC4(c5ccc(F)cc5)CN(C)C4)c(C4CC4)c3c(=O)[nH]2)cc1C(F)(F)F	6
COc1ccc([C@@H](C)NC(=O)c2cc3c(=O)[nH]c(-c4ccc5ccccc5c4)c(C)n3n2)cn1	1.55
Cc1ccc(-c2[nH]c(=O)c3c(C(F)(F)F)c(C(=O)N[C@@H](c4ccc(F)cc4)C(C)(C)O)nn3c2C)cc1C	9.55
Cc1ncc(-c2cn3nc(C(=O)N[C@@H](C)c4ccc(F)cc4)c(C4CC4)c3c(=O)[nH]2)cc1Cl	1.25
O=C(N[C@@H](c1ccc(F)cc1)C(F)(F)CO)c1nn2cc(-c3ccc(Cl)c(C(F)F)c3)[nH]c(=O)c2c1C1CC1	6
Cc1ccc(-c2cn3nc(C(=O)NC(c4ccc(F)cc4)C4(O)CC4)cc3c(=O)[nH]2)cc1F (stereo not shown)	7.5
O=C(N[C@H](CN1CC(F)C1)c1ccc(F)cc1)c1nn2cc(-c3ccc4ccccc4c3)[nH]c(=O)c2c1C(F)(F)F	1.08
Cc1ccc(-c2cn3nc(C(=O)N[C@@H](c4ccc(F)cc4)C(F)(F)CO)cc3c(=O)[nH]2)cc1C	1.6
CCCc1c(C(=O)N[C@@H](c2ccc(F)cc2)C(C)(C)O)nn2cc(-c3ccc(C)c(C)c3)[nH]c(=O)c12	0.69
Cc1cc(-c2cn3nc(C(=O)N[C@H](CN4CCOCC4)c4ccc(F)cc4)c(C(F)(F)F)c3c(=O)[nH]2)ccc1Cl	2.05
Cc1ccc(-c2cn3nc(C(=O)NC(c4ccc(F)cc4)C4(O)CC4)c(C(F)(F)F)c3c(=O)[nH]2)cc1F (racemic)	2.08

— patent US20220324865A1 (Bayer Aktiengesellschaft, priority 2018, published 2022)
